Values quoted from earlier work, collected in patent publication US7161029B2, “DiL-lysine monosulfate trihydrate crystal and method of making” (Ajinomoto Co., Inc., priority 2003, dated 2007).

Details: known from the art; cited from earlier work

**Q.** For anhydrous diL-lysine sulfate, which solubility in water is on record?
**A.** highly soluble
